Bioassay records as filed in PubChem BioAssay.
In the library only some 3.7% were active in any assay of this set; here they are far more common.
Nrf2 block – inhibitors of Nrf2 signaling; A549 ARE-Fluc reporter, luciferase luminescence, 18-24 h; Potency, µM (top dose mostly 46 µM), without a hit: at the top dose activity change, negative = inhibition, actives largely listed as inhibitors; actives 2.1% (n = 360,000); further: potency means the concentration at half of the fitted maximal effect; on the % scale 0 is the no-effect control and ±100 the full control effect; nearly all actives have a fitted effect of over 60% in size
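A549 ARE_Fluc cells (5000/well, 5% FBS OPTI-MEM) pre-incubated 2 h, then treated with compounds 18-24 h at 37C/5% CO2 in concentration-response. CellTiter-Fluor viability read first; BugLite luciferase luminescence after 15 min at room temperature gives Nrf2 activity.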
ClpP mod – qHTS Assay for Activators of ClpP; ATP-dependent Clp protease proteolytic subunit (Bacillus subtilis (strain 168)), P80244; purified B. subtilis ClpP, FRET peptide cleavage, 20 min; actives 1.9% (n = 340,000); Potency, µM (doses to about 57.5 µM), for the others: at the highest dose activity change, negative = active; active means well fitted falling curve with a large enough effect; inconclusive means small, poorly fitted or top-dose-only effect; inactive means no such curve, though single readings can be large or run the other way; further: potency means the concentration at half of the fitted maximal effect; the source files actives as falling curves though it sought activators and does not explain the sign; nearly all actives have a fitted effect of over 65% in size
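ClpP 10 microg/mL final, pH 8 Tris/KCl buffer with BSA, glycerol, Tween-20; compound pinned in; FRET-FV substrate; RT 20 min; Ex320/Em430; ΔFRET vs ADEP 5.8 microM, DMSO, no enzyme.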
TCR activator – T cell receptor activation | primary human leukocytes, anti-CD3, IL-2 HTRF, 48 h | Potency, µM (series often up to 9.22 µM), inactives show top-dose activation of IL-2 secretion, hits mostly activators | 330,000 tested, under 10 active; further: % of control where 0% means no effect
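Primary human leukocytes receive a-CD3 beads and test compound and are incubated 48 hr. Secreted IL-2 is then assayed by HTRF, measuring 665nm acceptor emission after 320nm excitation of the europium donor.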
A549 tox-1 – kills or reduces viability of A549 cells in Nrf2 counter-screen; A549 ARE-Fluc cells, CellTiter-Fluor viability, 18-24 h; Potency, µM (titrated, usually from 46 µM), inactives show at the highest dose activity change, negative = cytotoxicity, usual class: inhibitors; actives 0.16% (n = 390,000); further: potency means the concentration at half of the fitted maximal effect; on the % scale 0 is the no-effect control and ±100 the full control effect
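A549 ARE_Fluc cells in 5% FBS OPTI-MEM were exposed to compounds in concentration-response for 18-24 h at 37 deg C. Viability was read by CellTiter-Fluor fluorescence (Ex 405/Em 525) after 30 min, before the luciferase read.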
miR-21 reporter – miR-21 reporter, rising signal | HeLa miR-21 FLuc reporter, luciferase, 48 h | Potency, µM (highest dose often 38.3 µM), for inactives: at the top dose reporter change, positive = more light | 340,000 tested, under 10 active | AID 2288; active = well fitted rising curve with a large enough effect; inconclusive = small, poorly fitted or top-dose-only effect; inactive = no such curve, though single readings can be large or run the other way;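 further: % of control where 0% means no effect; miR-21 action dims this reporter so a rising signal means less miR-21 action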
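Compounds were titrated across several concentrations (up to approximately 40 uM) and incubated 48 hours with HeLa miR-21-FLuc reporter cells (miR-21 target sequence downstream of FLuc, endogenous miR-21). Readout was firefly luciferase luminescence after lytic detection reagent.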
Nrf2 activator – activates Nrf2 signaling; actives 0.31% (n = 410,000); AREc32 ARE-luciferase reporter (MCF7-derived line), luminescence, 24 h; Potency, µM (highest dose often 46.1 µM), inactives show at the top dose activation, actives largely listed as activators; AID 624171; further: potency means the concentration at half of the fitted maximal effect; % of control where 0% means no effect; nearly all actives have a fitted effect of over 65% in size
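Luciferase luminescence (Steady-Glo, 30 min at room temperature) served as the read-out of ARE activation in AREc32 cells treated with compounds for 24 hr at 37 deg C.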
FLuc enzyme inh – counter-screen for Nrf2 inhibitors: firefly luciferase enzyme inhibition; shares compounds with Nrf2 block; purified firefly luciferase, luminescence inhibition; Potency, µM (highest dose often 57.5 µM), for the others: top-dose activity change, negative = inhibition, usual class: inhibitors; actives 4% (n = 1,400); AID 720522; further: potency means the concentration at half of the fitted maximal effect; on the % scale 0 is the no-effect control and ±100 the full control effect; nearly all actives have a fitted effect of over 65% in size
A549 tox-2 – counter-screen for Nrf2 inhibitors: cytotoxicity in A549 ARE cells; actives 2% (n = 1,400); Potency, µM (top dose mostly 46.1 µM), for the others: top-dose activity change, negative = cytotoxicity, hits mostly inhibitors; A549 ARE-Fluc cells, cytotoxicity counterscreen; shares compounds with Nrf2 block; AID 720523;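 further: potency means the concentration at half of the fitted maximal effect; cells exposed to compounds for 18 to 24 hours; on the % scale 0 is the no-effect control and ±100 the full control effect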
Nrf2 ARE inh – confirmation of Nrf2 inhibitors in A549 ARE reporter cells; actives 74% (n = 1,400); AID 720524; Potency, µM (titrated, usually from 46.1 µM), for the others: at the highest dose activity change, negative = inhibition, actives largely listed as inhibitors; shares compounds with Nrf2 block; A549 ARE-firefly luciferase reporter, luminescence; further: potency means the concentration at half of the fitted maximal effect; on the % scale 0 is the no-effect control and ±100 the full control effect; nearly all actives have a fitted effect of over 65% in size
An asterisk follows results filed as active; ? = inconclusive; / = no result shown; [ ] = remark or other dose. Unless noted, the call rests on the fitted dose curve; in most records, active means well fitted curve in the direction sought with a large enough effect; inconclusive means small, poorly fitted or top-dose-only effect, or another doubt; inactive means no such curve, though single readings can be large; an effect the other way counts as inactive or inconclusive.

SMILES	Nrf2 block	ClpP mod	TCR activator	A549 tox-1	miR-21 reporter	Nrf2 activator	others
COC(=O)C1=C(c2ccc(F)cc2OCc2ccccc2)C[C@@H]2CC[C@H]1N2C(=O)NCCOc1ccc(OC)cc1	23µM*	1%	-1%	-12%	/	-2%
COC(=O)C1=C(c2ccc(F)cc2OCc2ccccc2)C[C@@H]2CC[C@H]1N2C(=O)NCc1ccccc1Cl	5.2µM*	-5%	7%	-16%	/	0%
COC(=O)C1=C(c2ccc(F)cc2OCc2ccccc2)C[C@@H]2CC[C@H]1N2C(=O)NCc1ccc(Br)cc1	15µM*	-1%	-2%	-22%	/	0%
COC(=O)C1=C(c2ccc(F)cc2OCc2ccccc2)C[C@@H]2CC[C@H]1N2C(=O)NCCOc1ccccc1	?	0%	12%	-19%	/	-1%
ClCCN(CCCl)c1ccc(/C=C/c2ccnc3ccccc23)cc1	/	-5%	/	/	/	/
C=CC[C@@H](CC(=O)N(CCO)Cc1ccccc1)C(=O)NC[C@@H](OC(=O)[C@@H](CC=C)CC(=O)OC(C)(C)C)c1ccccc1	?	3%	-6%	-27%	/	-1%
C=CC[C@H](CC(=O)N(CCO)Cc1ccccc1)C(=O)NC[C@H](OC(=O)[C@@H](CC=C)CC(=O)OC(C)(C)C)c1ccccc1	18µM*	2%	-1%	?	/	-4%
Cc1cc[n+](Cc2ccccc2)cc1	18µM*	-1%	2%	-1%	/	0%
Cc1cc(C(=O)Nc2ccc(CC(=O)O)cc2)c(C)o1	5.2µM*	/	-3%	4%	24%	-3%
CCc1ccc(NC(=O)c2ccc3oc(=O)n(Cc4ccccc4)c3c2)cc1	/	?	/	-17%	?	4%
CCc1ccccc1NC(=O)C1CCCN(c2ncnc3onc(C)c23)C1 (stereo not given)	?	-3%	/	-13%	8%	1%
O=C(Nc1ccc(Br)cc1)c1ccc(F)c(S(=O)(=O)N2CCCc3ccccc32)c1	/	-29%	/	-27%	?	-1%
COc1ccccc1OCCCn1cc(C(C)=O)c2ccccc21	?	/	-4%	0%	11%	3%
COc1ccc(C(=O)NCCn2cc(SC(C)c3ccccc3)c3ccccc32)cc1OC (stereo not given)	23µM*	-3%	/	-19%	?	1%
Cc1ccc(C(=O)COC(=O)c2cccc(NC(=O)c3ccc(Br)cc3)c2)cc1	?	2%	/	-7%	-20%	-1%
Cc1cc(-c2ccccc2)cc(-c2ccccc2)[n+]1CCc1ccccc1	?	-22%	4%	-9%	/	5%
Fc1ccc(C[n+]2c(-c3ccccc3)cc(-c3ccccc3)cc2-c2ccccc2)cc1	18µM*	4%	-2%	?	/	-1%
Clc1ccc(C[n+]2c(-c3ccccc3)cc(-c3ccccc3)cc2-c2ccccc2)cc1	21µM*	4%	2%	?	/	-3%
CCCOP(=O)(OCCC)c1nc(-c2ccccc2)oc1NCc1ccccc1	18µM*	/	0%[46.1 µM]	?	-10%	7%
CCc1nc2ccc(Br)cc2c(=O)n1-c1ccccc1C(F)(F)F	4%	-1%	3%	-5%	/	0%
CCCc1nc2ccc(Br)cc2c(=O)n1-c1ccc([N+](=O)[O-])c(C(F)(F)F)c1	21µM*	-1%	-4%[46.1 µM]	-23%	?	6%
C[C@@H]1O[C@@H](O[C@@H]2C=C3CC[C@@H]4C(CC[C@]5(C)[C@@H](c6ccc(=O)oc6)CC[C@]45O)[C@@]3(C)CC2)[C@H](O)[C@H](O)[C@H]1O (stereo not given in full)	0.023µM*	-5%	1%	?	/	-3%
CCOC(=O)c1ncn2c1CN(C)C(=O)c1cc(F)ccc1-2	2.1µM*	-1%	-2%	-8%	-4%	0%	FLuc enzyme inh=3%;A549 tox-2=-8%;Nrf2 ARE inh=7.3µM*
CCC(=O)Nc1ccc(C(=O)OCc2ccccc2Cl)cc1	2%	-5%	-1%	2%	-45%	4%
CCCCn1c(=O)c(C(=O)Nc2nc3ccccc3[nH]2)c(O)c2ccccc21	/	/	/	/	-14%	/

The final four compounds of the section above open the next one:
SMILES	Nrf2 block	ClpP mod	TCR activator	A549 tox-1	miR-21 reporter	Nrf2 activator	others
C[C@@H]1O[C@@H](O[C@@H]2C=C3CC[C@@H]4C(CC[C@]5(C)[C@@H](c6ccc(=O)oc6)CC[C@]45O)[C@@]3(C)CC2)[C@H](O)[C@H](O)[C@H]1O (stereo not given in full)	0.023µM*	-5%	1%	?	/	-3%
CCOC(=O)c1ncn2c1CN(C)C(=O)c1cc(F)ccc1-2	2.1µM*	-1%	-2%	-8%	-4%	0%	FLuc enzyme inh=3%;A549 tox-2=-8%;Nrf2 ARE inh=7.3µM*
CCC(=O)Nc1ccc(C(=O)OCc2ccccc2Cl)cc1	2%	-5%	-1%	2%	-45%	4%
CCCCn1c(=O)c(C(=O)Nc2nc3ccccc3[nH]2)c(O)c2ccccc21	/	/	/	/	-14%	/
CCCCCn1c(=O)c(C(=O)Nc2nc3ccccc3[nH]2)c(O)c2ccccc21	2.6µM*	/	-21%	?	-8%	0%	FLuc enzyme inh=3%;A549 tox-2=?;Nrf2 ARE inh=6.5µM*
Cc1ccc(CNCc2c(C(=O)O)n(Cc3ccccc3C)c3cc(C)ccc23)cc1	?	1%	/	0%	-1%	1%
CCOC(=O)c1ccc(N2C(=O)c3n[nH]c(-c4cccs4)c3C2c2ccc(Cl)cc2Cl)cc1 (stereo not given)	?	-13%	/	-14%	?	-5%
CC(=O)N1CCCc2cc(S(=O)(=O)N3CCCC(C(=O)Nc4cccc(F)c4)C3)ccc21 (stereo not given)	9.2µM*	0%	0%	-9%	20%	1%	FLuc enzyme inh=3%;A549 tox-2=-2%
Cc1ccc(NC(=O)C2CCCN2S(=O)(=O)c2ccc3c(c2)CCCC(=O)N3)cc1Cl (stereo not given)	?	2%	/	0%	16%	5%
CC1=CC2OC3CC4OC(=O)C=CC=CC(C(C)O)OCC(O)C(C)CC(=O)OCC2(CC1O)C4(C)C31CO1 (stereo not given)	0.058µM*	1%	-4%	/	/	-2%	FLuc enzyme inh=-13%;Nrf2 ARE inh=0.052µM*
CC1=CC2OC3CC4OC(=O)C=CC=CC(=O)OCCC(C)C(O)C(=O)OCC2(CC1O)C4(C)C31CO1 (stereo not given)	0.073µM*	0%	-2%	/	/	-1%	FLuc enzyme inh=-11%;Nrf2 ARE inh=3.7µM*
CC(=O)OC1C(=O)OCC23CCC4(C)OC4C2OC2CC(OC(=O)C=CC=CC(=O)OCCC1C)C3(C)C21CO1 (stereo not given)	0.016µM*	1%	-2%	/	/	-1%	FLuc enzyme inh=3%;Nrf2 ARE inh=0.012µM*
